# According to ChEMBL document CHEMBL4052667 (Bioorg Med Chem, 2017):
# Organism: Homo sapiens
# Test: Selectivity ratio of IC50 for HDAC1 (unknown origin) to IC50 for HDAC6 (unknown origin)
structure (smiles),measurement,value
O=C(Cc1ccc(CN2CCN(C(=O)c3cc(Cc4n[nH]c(=O)c5ccccc45)ccc3F)CC2)cc1)NO,Ratio IC50,7
